{"sequences": {"note": "Chains of the proteins cited; added tags and fusions are not shown.", "UniProt P33533, whole entry": "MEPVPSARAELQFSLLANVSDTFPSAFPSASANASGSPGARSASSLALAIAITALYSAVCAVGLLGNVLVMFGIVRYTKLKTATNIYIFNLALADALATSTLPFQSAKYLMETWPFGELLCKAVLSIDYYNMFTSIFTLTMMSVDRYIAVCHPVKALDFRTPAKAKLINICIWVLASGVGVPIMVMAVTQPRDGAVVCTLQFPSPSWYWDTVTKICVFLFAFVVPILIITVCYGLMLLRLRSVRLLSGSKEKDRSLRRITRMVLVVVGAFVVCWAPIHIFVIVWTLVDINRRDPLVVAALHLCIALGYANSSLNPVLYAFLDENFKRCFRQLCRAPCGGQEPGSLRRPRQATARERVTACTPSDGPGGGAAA"}, "source": "paper PMC8554411", "about": "(Pharmacology Research & Perspectives, 2021)", "biological_target": "delta opioid receptor (Rattus norvegicus, UniProt P33533)", "assay_type": "in vivo", "conditions": "DPDPE 20 μg i.pl., vehicle pretreatment, rat hindpaw", "data": [{"substance": "[D‐Pen^2,5]‐Enkephalin [DPDPE, reference compound]", "values": [{"measurement": "effect of agonist on PGE2-stimulated thermal allodynia", "result": "reduced"}]}]}
